Chains of the proteins cited; added tags and fusions are not shown.
UniProt P35372, whole entry, looked up: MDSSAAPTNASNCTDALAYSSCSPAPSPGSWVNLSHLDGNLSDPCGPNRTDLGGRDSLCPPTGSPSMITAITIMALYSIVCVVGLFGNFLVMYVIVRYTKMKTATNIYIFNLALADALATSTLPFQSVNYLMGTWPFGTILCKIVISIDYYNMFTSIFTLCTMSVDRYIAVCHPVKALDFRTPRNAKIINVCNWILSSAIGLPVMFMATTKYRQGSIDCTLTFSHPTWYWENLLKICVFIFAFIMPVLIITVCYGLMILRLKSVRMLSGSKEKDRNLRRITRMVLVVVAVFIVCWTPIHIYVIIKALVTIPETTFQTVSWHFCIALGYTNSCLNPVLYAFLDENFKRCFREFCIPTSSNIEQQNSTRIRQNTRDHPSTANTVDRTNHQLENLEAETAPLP

In ChEMBL document CHEMBL1143349, “Novel non-peptide nociceptin/orphanin FQ receptor agonist, 1-[1-(1-Methylcyclooctyl)-4-piperidinyl]-2-[(3R)-3-piperidinyl]-1H-benzimidazole: design, synthesis, and structure-activity relationship of oral receptor occupancy in the brain for orally potent antianxiety drug” (J Med Chem, 2009):

What was measured:
Mu-type opioid receptor [1] = biological target: T1, Mu-type opioid receptor (Homo sapiens, UniProt P35372); experiment: Displacement of [3H]DAMGO from human mu opioid receptor expressed in CHOK1 cells; assay type: cell-based; details: cho-k1
Mu-type opioid receptor [2] = biological target: T1, Mu-type opioid receptor; details: cho-k1

Question: How did the Ki (Mu-type opioid receptor [1]) turn out when CC1(N2CCC(n3c([C@H]4CCCNC4)nc4ccccc43)CC2)CCCCCCC1 was run?
Answer: The Ki was 0.59 nM.

Question: And the EC50 (Mu-type opioid receptor [2])?
Answer: Its EC50 is 23 nM.
